System: male Wistar rats
Assay: Catalepsy test
Assay type: in vivo
Conditions: oral, rat, minimum effective cataleptic dose

Structure (SMILES) | Catalepsy (MED)
Cc1cc2c(s1)Nc1ccccc1N=C2N1CCN(C)CC1 [Olanzapine, reference compound] | 40 mg/kg
Cc1nc2n(c(=O)c1CCN1CCC(c3noc4cc(F)ccc34)CC1)CCCC2 [Risperidone, reference compound] | 6.0 mg/kg

Source: patent US8802672B2, “Pyrimidinyl-piperazines useful as D3/D2 receptor ligands” (Richter Gedeon Nyrt., priority 2007, dated 2014)
